Measured values as given in publication PMC5428777, “Molecular Characteristics and Serodiagnostic Potential of Dihydrofolate Reductase from Echinococcus granulosus” (Scientific Reports, 2017).

Molecular target: T1, rEg-DHFR (Echinococcus granulosus, UniProt U6JJS2)
T1 sequence (U6JJS2 1-191): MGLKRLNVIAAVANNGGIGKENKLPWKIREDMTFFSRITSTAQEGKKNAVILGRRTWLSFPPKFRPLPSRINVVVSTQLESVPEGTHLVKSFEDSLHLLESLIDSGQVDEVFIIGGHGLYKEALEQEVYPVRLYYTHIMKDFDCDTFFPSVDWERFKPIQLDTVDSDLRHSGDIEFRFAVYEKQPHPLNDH
Test: Inhibition of rEg-DHFR enzyme activity by antifolates (DHFR assay kit, absorbance 340 nm)
Format: biochemical

## CN(Cc1cnc2nc(N)nc(N)c2n1)c1ccc(C(=O)N[C@@H](CCC(=O)O)C(=O)O)cc1 [Methotrexate, methotrexate]
  IC50: 27.8 ± 1.03 nM
